In PubChem BioAssay AID624136 (Broad Institute, 2012):
The list shows a part of the results, in another mix than the full data. Some structures show a salt or complex split into parts, the way the source records it. Calls of active or inactive are those of the source.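 How the source made its calls: active means compounds whose four printed spots each glow above background more than chance allows, each with a p-value under 7%; inactive means the rest.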

Tested on: mutant tumor protein p53 (GST-tagged), Homo sapiens
Test: binders of human mutant p53, primary screen, biochemical, small molecule microarray, anti-GST fluorescence (AID 624136)
Conditions: small molecule microarray binding

Row | Compound | outcome
1 | C/C1=C2N=C(/C=C3N=C(/C(C)=C4\[N-][C@@](C)([C@@H]5N=C1[C@](C)(CCC(=O)NCC(C)OP(=O)(O)O[C@@H]1[C@H](O)[C@H](n6cnc7cc(C)c(C)cc76)O[C@H]1CO)[C@H]5CC(N)=O)[C@@](C)(CC(N)=O)[C@@H]4CCC(N)=O)[C@@](C)(CC(N)=O)[C@@H]\3CCC(N)=O)C(C)(C)[C@@H]/2CCC(N)=O.[C-]#N.[Co+3] (stereo partly specified) | inactive
2 | COc1ccc(CN2/C(=N\P(=O)(Oc3ccccc3)Oc3ccccc3)Cc3ccccc3C2C2CC2)cc1 (stereo unspecified) | inactive
3 | COc1ccc(CN2/C(=N/P(=O)(Oc3ccccc3)Oc3ccccc3)CC(C)=CC2C)cc1 (stereo unspecified) | inactive
4 | C=CC1C=C(C)C/C(=N\P(=O)(Oc2ccccc2)Oc2ccccc2)N1Cc1ccc(OC)cc1 (stereo unspecified) | inactive
5 | C/C1=C2N=C(/C=C3N=C(/C(C)=C4\[N-][C@@](C)([C@@H]5N=C1[C@](C)(CCC(=O)NC[C@@H](C)OP(=O)(O)O[C@H]1[C@@H](O)[C@@H](n6cnc7cc(C)c(C)cc76)O[C@@H]1CO)[C@H]5CC(N)=O)[C@@](C)(CC(N)=O)[C@@H]4CCC(N)=O)[C@@](C)(CC(N)=O)[C@@H]\3CCC(N)=O)C(C)(C)[C@@H]/2CCC(N)=O.[C-]#N.[Co+3] | inactive
6 | CN(C(=O)Cc1ccc(Cl)c(Cl)c1)C1CCCCC1N1CCCC1 (stereo unspecified) | inactive
